One may read the IC50 as the concentration needed to halve the response being measured. Read a low IC50 as higher potency.

Sequences of proteins named here, by UniProt entry; tags and fusion partners are left off. A change or cut given only in a name is not applied to a line headed by its entry.
UniProt P56524: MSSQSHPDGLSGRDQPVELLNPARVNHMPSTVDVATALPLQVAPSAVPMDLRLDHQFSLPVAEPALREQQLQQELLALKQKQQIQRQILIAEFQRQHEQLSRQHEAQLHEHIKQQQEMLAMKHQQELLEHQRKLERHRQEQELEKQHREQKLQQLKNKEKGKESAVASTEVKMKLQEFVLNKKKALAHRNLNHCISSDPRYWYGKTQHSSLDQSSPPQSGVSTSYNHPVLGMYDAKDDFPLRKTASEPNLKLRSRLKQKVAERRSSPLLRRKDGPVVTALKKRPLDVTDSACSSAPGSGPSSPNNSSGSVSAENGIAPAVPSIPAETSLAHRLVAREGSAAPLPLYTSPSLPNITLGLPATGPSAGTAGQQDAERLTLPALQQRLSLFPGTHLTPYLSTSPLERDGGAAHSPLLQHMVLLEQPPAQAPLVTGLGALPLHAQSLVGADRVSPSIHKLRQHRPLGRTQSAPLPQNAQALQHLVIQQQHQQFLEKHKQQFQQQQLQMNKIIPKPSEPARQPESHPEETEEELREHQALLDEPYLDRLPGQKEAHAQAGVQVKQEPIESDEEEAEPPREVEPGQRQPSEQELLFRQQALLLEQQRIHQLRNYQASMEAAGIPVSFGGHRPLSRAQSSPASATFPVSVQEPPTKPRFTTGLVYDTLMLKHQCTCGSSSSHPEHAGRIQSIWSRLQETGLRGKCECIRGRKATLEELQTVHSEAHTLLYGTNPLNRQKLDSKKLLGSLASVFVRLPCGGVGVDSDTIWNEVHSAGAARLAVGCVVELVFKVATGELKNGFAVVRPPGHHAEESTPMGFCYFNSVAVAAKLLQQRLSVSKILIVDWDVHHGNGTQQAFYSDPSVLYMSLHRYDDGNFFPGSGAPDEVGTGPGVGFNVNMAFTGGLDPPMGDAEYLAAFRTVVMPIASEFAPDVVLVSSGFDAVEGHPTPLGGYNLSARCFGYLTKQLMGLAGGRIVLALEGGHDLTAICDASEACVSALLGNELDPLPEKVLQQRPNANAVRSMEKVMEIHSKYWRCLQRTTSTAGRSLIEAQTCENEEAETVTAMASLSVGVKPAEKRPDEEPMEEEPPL

Structures are written as SMILES.

The record followed here is ChEMBL document CHEMBL4765362, “Thirty Years of HDAC Inhibitors: 2020 Insight and Hindsight” (J Med Chem, 2020).

For the experiment, the target named is Histone deacetylase 4 (Homo sapiens, UniProt P56524). The experiment can be described thus: Inhibition of HDAC4 (unknown origin) (648 to 1057 residues) expressed in Escherichia coli BL21(DE3) cells using Boc-Lys(TFA)-AMC as substrate preincubated for 5 mins followed by substrate addition and measured after 30 mins by fluorescence method.

`COc1ccc(Cn2ccc3ccc(C(=O)NO)cc32)cc1` yielded an IC50 greater than 20 µM.
